Laboratory results reported in patent publication US7585941B2 (priority 2004, dated 2009).

Tests used:
Assay in all cases: biochemical
Type in all cases: binding
[1] = target: T1, hMOR-1(exons 1-3) (Homo sapiens, UniProt P35372)
T1 construct: A cDNA fragment containing only exons 1, 2 and 3 was also generated by PCR; expressed in transfected cells

[2] = target: hMOR-1B1 (Homo sapiens, UniProt P35372)
[3] = target: hMOR-1B2 (Homo sapiens, UniProt P35372)
[4] = target: hMOR-1Y (Homo sapiens, UniProt P35372)

CC(C)C[C@@H](NC(=O)[C@H](Cc1ccccc1)NC(=O)CNC(=O)[C@@H](C)NC(=O)[C@@H](N)Cc1ccc(O)cc1)C(=O)O [DADLE]
Ki [1]: 4.5 ± 1.5 nM
Ki [2]: 3.6 ± 2.6 nM
Ki [3]: 10 ± 5.9 nM
Ki [4]: 6.5 ± 3 nM
